scFv variants of Ab-14 (light chain) against a SARS-CoV-2 spike peptide

The measurements come from Engelhart et al. 2022 (doi:10.1038/s41597-022-01779-4) through the FLAb antibody collection.

The target is the same throughout: PDVDLGDISGINAS, from the HR2 region of SARS-CoV-2 spike.

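The parent was found by panning a naive human phage display library on the peptide. The library (AAYL50) carries one to three amino acid substitutions per variant, with no insertions or deletions. The scFvs were displayed on barcoded MATa yeast, the peptide on MATalpha yeast. Binding brings cells together so that they mate, and sequencing counts the barcode pairs among the diploids. Read counts were normalised to the haploid input and turned into Kd by a linear fit to BCL2-family pairs of known affinity, for each replicate. Each pool was mated in three replicate cultures.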

Each scFv is VH, a (GGGGS)3 linker, VL, as in the parent Ab-14, and differs from it in the CDRs of the light chain only.
VH: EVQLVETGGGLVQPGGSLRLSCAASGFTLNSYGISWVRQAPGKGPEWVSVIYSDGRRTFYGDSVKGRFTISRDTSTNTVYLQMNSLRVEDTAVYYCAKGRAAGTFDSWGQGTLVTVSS
VL: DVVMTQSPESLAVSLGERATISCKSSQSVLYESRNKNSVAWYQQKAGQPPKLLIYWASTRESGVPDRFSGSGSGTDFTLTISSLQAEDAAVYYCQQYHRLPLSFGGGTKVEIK

Variants are written as CDR1, CDR2 and CDR3 of the light chain (limits as in the source). Parent: KSSQSVLYESRNKNSVA, WASTRES, QQYHRLPLS. Numbers give log10(Kd / nM), so 0 is 1 nM and 3 is 1 µM. Smaller is tighter. "n.d." marks a missing value. The strain was present, yet no cells mated with the target were sequenced in that replicate, which points to weak or no binding. As a blank, each scFv also met three strains without target: over library AAYL50, 18% of these pairings were detected, typically at 4.19 and seldom below 2.99. For each scFv, signals with the empty controls are counted beside the result, with their mean in brackets.

CDR-L1,CDR-L2,CDR-L3,"replicates, log10 nM",control signals
NSSQMVLYASRNKNSVA,WASTRES,QQYHRLPLS,2.71 / 2.60 / 2.93,4/9 (4.78)
KSSHFVLYEYRNKNSVA,WASTRES,QQYHRLPLS,3.83 / 3.02 / 3.60,8/9 (4.46)
KVSQSVLYEDRNKNSVA,EASTRES,QQYHRLPLS,-0.49 / -0.07 / -0.45,6/9 (5.15)
KSSQSVLYESRNKLSQA,WASTRES,QQWHRLPLS,n.d. / n.d. / n.d.,0/9
KSRQSVLYESDNKNSVA,WAQTRES,QQYHRLPLS,1.41 / 1.37 / 1.67,0/9
KSSQSVLYESRNKNHVA,WASTWNS,QQYHRLPLS,n.d. / n.d. / n.d.,0/9
KSSQSVLYELRNKNSVW,WASTRLS,QQYHRLPLS,n.d. / n.d. / n.d.,0/9
KSSQSVLYESRNKNSVA,WYSTRES,QHYFRLPLS,4.42 / n.d. / 4.28,3/9 (4.36)
KSSQSVLYESRNKNYFA,WASTRES,QQYHRLPLS,n.d. / 3.72 / 4.91,3/9 (4.41)
KSSQMVLYESRNSNSVA,WASTRES,QQYHLLPLS,2.12 / 2.37 / 2.89,1/9 (4.20)
KSSQSVLYESLNKNSVA,WASTRLS,QQYKRLPLS,n.d. / n.d. / n.d.,0/9
VSSYSVLYESRWKNSVA,WASTRES,QQYHRLPLS,n.d. / n.d. / n.d.,1/9 (2.88)
KSSQQVLYESDTKNSVA,WASTRES,QQYHRLPLS,1.12 / 1.23 / 1.40,1/9 (3.86)
KSSQSVHYESRNKASVA,WASNRES,QQYHRLPLS,1.88 / 1.95 / 2.01,2/9 (3.90)
KSSQSALYESRNKNSVA,WASTRES,QQYHRLPLS,1.55 / 1.35 / 1.05,0/9
KSSQSVLYIKRNKISVA,WASTRES,QQYHRLPLS,0.48 / 0.74 / 0.67,2/9 (4.42)
KSSQNVLYESANKNSVA,WALTRES,QQYHRLPLS,2.59 / 2.90 / 2.68,2/9 (3.77)
KSSQSVLYESDSKNSVA,RASTRES,QQYHRLPLS,-0.07 / 0.46 / 0.09,2/9 (4.89)
KFSQSVLYESFNKNSVA,WASTRRS,QQYHRLPLS,2.98 / 2.50 / 2.76,1/9 (3.01)
KSSQSVLYESRNKNSVA,WAGTRES,QQYHFLPGS,4.00 / n.d. / n.d.,2/9 (3.79)
KYSQSVLYEYRNKRSVA,WASTRES,QQYHRLPLS,4.05 / 3.24 / n.d.,1/9 (4.16)
KSQQSVLYESRNKNSVA,WASTRQS,QQYHRLPLY,1.12 / 1.18 / 1.93,0/9
KSSQPVLYESRNLNSVH,WASTRES,QQYHRLPLS,n.d. / n.d. / n.d.,2/9 (3.88)
KSSQSVLYESRNKNSVA,WESTRES,QQYMRLPLS,n.d. / 2.49 / 3.18,0/9
KSSQMVLYESRCKNSVP,WASTRES,QQYHRLPLS,n.d. / n.d. / n.d.,0/9
RSSQRVLYESRNKNSVA,WASTRES,QIYHRLPLS,n.d. / n.d. / n.d.,2/9 (2.61)
KISQSWLYESRNKNSVA,WASTRED,QQYHRLPLS,0.46 / 0.66 / 0.60,1/9 (3.73)
KSSQSVLYESRNKNSVA,WASTWES,QMRHRLPLS,n.d. / n.d. / n.d.,1/9 (3.55)
KSSQSVLYMSRNKNSVA,WASTRES,QQYHRWPLS,n.d. / n.d. / n.d.,3/9 (4.20)
KSSQSALYESRNKNSVA,CASTRES,QQQHRLPLS,4.40 / 3.49 / 6.28,3/9 (3.70)
KSSQPVLYESRNKNSVA,WASTRES,QQYHRLALS,1.11 / 1.02 / 1.36,2/9 (3.92)
KSDQSVLYESAYKNSVA,WASTRES,QQYHRLPLS,0.81 / 1.22 / 1.22,3/9 (4.33)
KSSQSVLYESRNKNSVA,WASTRES,QGYHRLWLE,5.38 / n.d. / n.d.,1/9 (2.93)
KSSESVLYEWRNKNSVA,WASTRES,QDYHRLPLS,3.45 / 2.71 / 4.86,3/9 (4.10)

Repeated from above, the 6 best binders with a signal in all replicates:

CDR-L1,CDR-L2,CDR-L3,"replicates, log10 nM",control signals
KVSQSVLYEDRNKNSVA,EASTRES,QQYHRLPLS,-0.49 / -0.07 / -0.45,6/9 (5.15)
KSSQSVLYESDSKNSVA,RASTRES,QQYHRLPLS,-0.07 / 0.46 / 0.09,2/9 (4.89)
KISQSWLYESRNKNSVA,WASTRED,QQYHRLPLS,0.46 / 0.66 / 0.60,1/9 (3.73)
KSSQSVLYIKRNKISVA,WASTRES,QQYHRLPLS,0.48 / 0.74 / 0.67,2/9 (4.42)
KSDQSVLYESAYKNSVA,WASTRES,QQYHRLPLS,0.81 / 1.22 / 1.22,3/9 (4.33)
KSSQPVLYESRNKNSVA,WASTRES,QQYHRLALS,1.11 / 1.02 / 1.36,2/9 (3.92)

In this assay the parent's reference entry averaged 0.65; its copy inside this library read 1.68.